Source: patent publication US6897032B1, “Method for detecting G- and V-agents of chemical warfare and their degradation products” (dated 2005)

Sequences of proteins named here, by UniProt entry; tags and fusion partners are left off. A change or cut given only in a name is not applied to a line headed by its entry.
UniProt Q45087: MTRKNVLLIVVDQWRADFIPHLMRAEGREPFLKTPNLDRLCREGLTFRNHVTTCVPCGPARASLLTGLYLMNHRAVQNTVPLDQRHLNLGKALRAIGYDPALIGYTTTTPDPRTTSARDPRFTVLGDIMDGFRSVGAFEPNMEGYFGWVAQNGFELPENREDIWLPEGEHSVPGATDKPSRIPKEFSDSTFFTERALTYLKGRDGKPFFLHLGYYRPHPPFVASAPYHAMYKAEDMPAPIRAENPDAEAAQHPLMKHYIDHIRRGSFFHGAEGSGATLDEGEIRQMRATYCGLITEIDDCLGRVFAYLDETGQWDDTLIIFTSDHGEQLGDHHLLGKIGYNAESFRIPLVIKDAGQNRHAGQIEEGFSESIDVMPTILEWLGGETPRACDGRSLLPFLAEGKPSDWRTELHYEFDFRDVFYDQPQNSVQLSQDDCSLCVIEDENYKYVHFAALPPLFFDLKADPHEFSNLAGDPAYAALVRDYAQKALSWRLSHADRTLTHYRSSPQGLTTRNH

Molecular target: phosphonate ester hydrolase enzyme (PEH) (Trinickia caryophylli, UniProt Q45087)
Assay: PEH against chromogenic substrates, p-nitrophenol release monitored spectrophotometrically

p-nitrophenyl phenylphosphonate
PEH degradation of chromogenic substrate (release of yellow p-nitrophenol): effective in degrading
